# PMC11171933, “Rapid Determination of Kinetic Constants for Slow-Binding Inhibitors and Inactivators of Human Histone Deacetylase 8” (International Journal of Molecular Sciences, 2024)
# Experiments:
# human HDAC8 = target: T1, human HDAC8 (Homo sapiens, UniProt Q9BY41); assay: Time-dependent fluorometric HDAC8 enzyme activity assay (dose-response curves after different pre-incubation times)
# T1 sequence (Q9BY41 1-377): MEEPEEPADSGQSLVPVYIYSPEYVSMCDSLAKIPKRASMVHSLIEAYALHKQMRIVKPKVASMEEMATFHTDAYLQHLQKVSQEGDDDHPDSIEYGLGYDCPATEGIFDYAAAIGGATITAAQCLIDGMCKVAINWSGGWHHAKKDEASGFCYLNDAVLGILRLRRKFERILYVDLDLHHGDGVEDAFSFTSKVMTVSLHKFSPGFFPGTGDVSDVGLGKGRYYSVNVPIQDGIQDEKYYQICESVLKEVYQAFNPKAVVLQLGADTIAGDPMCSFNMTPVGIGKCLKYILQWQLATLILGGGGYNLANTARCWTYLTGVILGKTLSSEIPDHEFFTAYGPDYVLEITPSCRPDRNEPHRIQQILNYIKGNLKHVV
# EGFR = EGFR inhibitor; cited from earlier work
Compound,IC50 (human HDAC8),residence time (RT) (EGFR)
"O=C(CCCCCCC(=O)Nc1ccccc1)NO [SAHA, suberoylanilide hydroxamic acid]",900 ± 200 nM,
CS(=O)(=O)CCNCc1ccc(-c2ccc3ncnc(Nc4ccc(OCc5cccc(F)c5)c(Cl)c4)c3c2)o1 [lapatinib],,7.2 h
